Test system: rats
Experiment: Activity level tests (10 minute session)
Conditions: 2 mg/kg (200 standard units); 10 minute period one hour after injection; FIGS. 10-13

C[C@H](N)Cc1ccccc1 [S-(+)amphetamine]
activity levels (total distance, total movement, rest time, rearing) versus saline control: higher levels of activity on all of the activity tests

From US20020161002A1, “Use of catecholamine reuptake inhibitors to enhance memory” (priority 2001, published 2002)
